# Measured values published in PubChem BioAssay AID1136 (Sanford-Burnham Center for Chemical Genomics, 2008).
# Protein sequences, listed by entry. Tags and fused reporters are not part of them.
# UniProt P05186, whole entry: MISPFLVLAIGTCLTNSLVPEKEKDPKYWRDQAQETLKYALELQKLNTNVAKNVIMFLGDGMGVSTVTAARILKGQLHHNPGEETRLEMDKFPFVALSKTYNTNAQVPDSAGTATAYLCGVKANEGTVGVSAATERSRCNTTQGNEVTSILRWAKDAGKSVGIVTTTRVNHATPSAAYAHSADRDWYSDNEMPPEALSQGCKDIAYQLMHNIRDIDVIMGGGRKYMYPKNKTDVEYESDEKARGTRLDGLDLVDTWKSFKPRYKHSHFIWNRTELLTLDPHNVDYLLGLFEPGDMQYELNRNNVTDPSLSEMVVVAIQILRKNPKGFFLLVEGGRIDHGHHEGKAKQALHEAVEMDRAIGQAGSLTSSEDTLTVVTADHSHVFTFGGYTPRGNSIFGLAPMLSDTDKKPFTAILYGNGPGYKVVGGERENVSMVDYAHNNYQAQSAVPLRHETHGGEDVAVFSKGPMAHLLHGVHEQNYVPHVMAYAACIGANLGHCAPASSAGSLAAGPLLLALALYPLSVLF
# Some of the results follow. The source made the active and inactive calls.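 How the source made its calls: active means activation factor at least 2 at 20 µM; inactive means the rest.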
# Biological target: Alkaline phosphatase, tissue-nonspecific isozyme (Homo sapiens) (UniProt P05186)
# Assay: activation of human TNAP, high DEA acceptor – biochemical, luminescence, uHTS, primary screen (AID 1136)
# Conditions: purified TNAP, CDP-star luminescence, 1 M DEA, 30 min, at 20 µM; stronger effect = higher value, 0 = EDTA background, 1 = DMSO-only activity
row,Compound,activation factor
1,Oc1ccccc1CNc1ccccn1,inactive
2,O=C(NC(Sc1ccncn1)C(Cl)(Cl)Cl)c1ccccc1 (centres undefined),inactive
3,Cc1c2non([O-])c-2c(C)[n+](=O)[n+]1[O-],inactive
4,CP(=O)(Nc1ccccn1)Oc1ccccc1 (centres undefined),inactive
5,COc1ccccc1OP(C)(=O)Nc1ccc(C)cc1C (centres undefined),inactive
6,CCc1ccc(OP(C)(=O)O)cc1,inactive
7,CCN(CC)CC(O)COC(=O)C(O)(c1ccccc1)C1CCCCC1 (centres undefined),inactive
8,COc1ccc(C2=NCC(CBr)S2)cc1 (centres undefined),inactive
9,COc1ccc(OP(C)(=O)Nc2ccc(Br)cc2)cc1 (centres undefined),inactive: 1.1
10,O=[N+]([O-])c1cccc2n[nH]nc12,inactive
11,CC(=O)N1C2C3N(C(C)=O)C1C1N(C(C)=O)C(C(N1C(C)=O)N3C(C)=O)N2C(C)=O,inactive
12,COc1ccccc1OP(C)(=O)Nc1c(C)n(C)n(-c2ccccc2)c1=O (centres undefined),inactive
13,Cc1ccc(NP(=O)(Oc2ccccc2)Oc2ccccc2)nc1,inactive
14,CP(=O)(Oc1ccccc1)N1CCOC1=O (centres undefined),inactive
15,CCc1ccc(OP(C)(=O)Nc2cccnc2)cc1 (centres undefined),inactive
16,COc1ccccc1OP(C)(=O)Nc1ccccc1Br (centres undefined),inactive
17,CC(C)(C)c1ccc(OP(C)(=O)O)cc1,inactive
18,CCN(/C(=N/P(=O)(N1CCOCC1)N1CCOCC1)N1CCOCC1)c1ccc(OC)cc1,inactive
19,CP(=O)(Nc1ccc(Cl)cc1)Oc1ccc(F)cc1 (centres undefined),inactive: 1.1
20,CN(C)C(=O)c1c([N+](=O)[O-])cc([N+](=O)[O-])cc1[N+](=O)[O-],inactive
21,CN(C)C(=O)OCCc1n(C)cc[n+]1C,inactive
22,CCOC(=O)c1ccc(NP(C)(=O)Oc2ccc(Cl)cc2)cc1 (centres undefined),inactive
23,CP(=O)(OC12CC3CC(CC(C3)C1)C2)OC12CC3CC(CC(C3)C1)C2,inactive
24,O=[N+]([O-])c1ncn(CCn2ncnc2[N+](=O)[O-])n1,inactive
